This passage reports activation results from PubChem BioAssay AID602247 (The Scripps Research Institute Molecular Screening Center, 2012).

The structures appear in SMILES notation. The entries are a selection whose mix differs from that of the whole data set. Activity calls are given as the source filed them.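 How the source made its calls: active means activation above the run cutoff, the mean activation of all test compounds plus 3 SD (cut at about 40% in these data); inactive means the rest.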

The experiment is described as follows: ATP EC20 calcium response enhancers, parental CHO-K1 – cell-based, Fluo-8 calcium fluorescence, full deck, 1536-well, counter-screen for M1 PAM project, primary screen (AID 602247).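 Further: peak over basal fluorescence ratio in a 140 s read after ATP addition.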 As to conditions: parental CHO-K1, ATP EC20, Fluo-8 calcium fluorescence; at 3 µM; active compounds read high; 0% at ATP EC20, 100% at ATP max.
Turning to `Cc1ccccc1OP(=O)(Nc1ccccn1)Oc1ccccc1C`, the activation is inactive: 13%.
The result for `CC(NC(=O)COC(=O)C(O)(c1ccccc1)c1ccccc1)c1ccccc1` (stereo not given) reads inactive: -11.9%; that for `CN(C)C(=O)Oc1noc2ccccc12`, inactive: 6.18%; that for `O=c1c2cc([N+](=O)[O-])ccc2[nH]c2c([N+](=O)[O-])cc([N+](=O)[O-])cc12`, inactive: 19.1%.
Take `CCN(C(=O)COC(=O)C(O)(c1ccccc1)c1ccccc1)c1c(N)n(Cc2ccccc2)c(=O)[nH]c1=O`: the activation was inactive: -2.15%.
The result for `O=P(Nc1ccccn1)(c1ccc(Br)cc1)c1ccc(Br)cc1` reads inactive: 8.07%; that for `Nc1ccc(CCCCOc2ccccc2)cc1`, inactive: 18.6%.
On to `COc1ccc(N)c([N+](=O)[O-])c1[N+](=O)[O-]`, for which the activation is inactive: 3.13%.
For `O=P(Nc1nc2ccccc2s1)(c1ccccc1)c1ccccc1`, the activation was inactive: -0.72%.
The result for `C[C@H]1OP(=O)(Oc2ccccc2)[C@H](O)[C@H](O)[C@H]1N=[N+]=[N-]` (stereo not given in full) reads inactive: -4.17%.
The result for `O=[As](O)(c1ccccc1)c1ccc(O)cc1` reads inactive: -6.11%; that for `CC(=O)NC(SC(=S)N(C)C)C(Cl)(Cl)Cl` (stereo not given), inactive: 10.8%; that for `O=[N+]([O-])c1ncn(CCn2cnc([N+](=O)[O-])n2)n1`, inactive: 8.95%.
Consider `O=[N+]([O-])c1ccc(O)c(/C=N/Nc2ccc([N+](=O)[O-])cc2[N+](=O)[O-])c1`, for which the activation was inactive: -5.82%.
The result for `O=C(OC1CN2CCC1CC2)c1cccc(Cl)c1` (stereo not given) reads inactive: 16.5%.
As to `Nc1ccc([As](=O)(O)c2ccc([N+](=O)[O-])cc2)cc1`, the activation was inactive: -9.26%.
The result for `C(Cc1nn[nH]n1)Cc1nn[nH]n1` reads inactive: 15.1%; that for `O=P(Nc1nccs1)(c1ccccc1)c1ccccc1`, inactive: 22.6%; that for `CC(C)C(=O)NC(Sc1ccccc1)C(Cl)(Cl)Cl` (stereo not given), inactive: 15.1%.
The result for `c1nnnn1CCn1cnnn1` reads inactive: 19.6%.
